PubChem BioAssay AID540303 (National Center for Advancing Translational Sciences (NCATS), 2011)
This is a selection; strong and weak results do not stand in their true shares. Records with an inconclusive call do not appear. Some salts or complexes appear as unconnected parts, following the source record. The source made the active and inactive calls. The call rests on the fitted dose curve; in most records, active means well fitted inhibition curve with a large enough effect; inconclusive means small, poorly fitted or top-dose-only effect; inactive means no such curve, though single readings can be large or run the other way; tested in mouse RAW 264.7 cells.

Assay: qHTS for Inhibitors of Cell Surface uPA Generation; further: nearly all actives have a fitted effect of over 55% in size
Details: cell surface uPA generation assay; at 38.3 µM (top of the series)
Description: The overall objective of this project is to perform a quantitative high throughput screen (qHTS) to identify novel compounds that inhibit the generation of cell surface urokinase activity. The urokinase plasminogen activator (uPA) is one of the two primary endogenous systems that mediate plasminogen activation into plasmin. Members of this system, including uPA and its receptor (uPAR), are overexpressed in several malignant tumors. This system plays a major role in adhesion, migration, invasion and metastasis of cancer cells. Small molecule inhibitors of the uPA system will serve as probes to understand the molecular mechanisms of the uPA cascade and better understanding the microenvironmental circumstances that facilitate the activation of plasminogen by uPA, and finally may provide novel candidate agents for anticancer drug therapy.
[…] […] Upon inhibition of the uPA activation cascade, the subsequent cell surface uPA activity-dependent translocation of LF into the cytoplasm is inhibited. ATP-Lite is used to measure intracellular ATP concentrations, which remain increased if LF entry into the cytoplasm is inhibited. This validation assay was performed using a small set of validation compounds.
NIH Chemical Genomics Center [NCGC]
NIH Molecular Libraries Probe Centers Network [MLPCN]
Assay Submitter (PI): Thomas Bugge, National Institute of Dental and Craniofacial Research, NIH
Cultured RAW 264.7 were dispensed into 1536-well clear bottom, white walled tissue culture plates at a density of 4000 cells/well and were incubated overnight (12-16 h) at 37 C in a 5% CO2 incubator. Serially diluted compounds in 23 nl DMSO were added to cells. […] Compound and reagent-treated plates were incubated for 24 h at 37 C in a 5% CO2 incubator. Perkin Elmer ATPlitetrade mark 1 step (3 ul) was then added to each well. Luminescence was detected using a Perkin Elmer ViewLuxtrade mark plate reader.
1.Dispensing RAW 264.7 cells into 1536-well, white walled tissue culture plates at a density of 4000 cells/well (4 uL).
2.Incubation at 37 C in a 5% CO2 incubator overnight.
3.Serially diluting compounds (1:5 serial dilution; 0.0024 uM to […] final concentration) in 23 nl DMSO.
5.Incubating the compound and reagent-treated plates for 24 hours at 37 C in a 5% CO2 incubator.
6.Adding ATP-Lite (3 ul).
7.Reading plates by ViewLux with an exposure length of 5 seconds.
On the % scale 0 is the no-effect control and ±100 the full control effect.

Compound	activity change, negative = inhibition
O=C(NCC1(N2CCCCC2)CCCCC1)c1cccc(C(F)(F)F)c1	inactive: -5.08%
O=[N+]([O-])c1cc([N+](=O)[O-])c(NCC2CCS(=O)(=O)C2)c([N+](=O)[O-])c1 (stereo not given)	inactive: 9.63%
CC(C)c1ccc(C(=O)NCC2(N3CCOCC3)CCCCC2)cc1	inactive: -5.4%
COc1ccc(NC2CCN(C(=O)OC(C)(C)C)CC2)cc1	inactive: 12.2%
CN1CCN(CCOC(=O)C(O)(c2ccccc2)c2ccccc2)CC1	inactive: -0.339%
O=C(NCC1(N2CCOCC2)CCCCC1)c1cc(=O)[nH]c2ccccc12	inactive: 3.98%
COc1cc(C(=O)NCC2(N3CCCCC3)CCCCC2)ccc1OC(F)F	inactive: -2.8%
O=C(NCC1(N2CCCCC2)CCCCC1)c1ccc(OC(F)F)cc1	inactive: 2.44%
CSc1ccc(C(=O)NCC2(N3CCOCC3)CCCCC2)cc1	inactive: -1.44%
O=C(NCC1(N2CCCCC2)CCCCC1)c1cccc([N+](=O)[O-])c1	inactive: 2.3%
N#CC1(Nc2ccccc2)CCN(CCc2ccccc2)CC1	inactive: 3.47%
CCN1CCC(Nc2ccc(Cl)cc2)CC1	inactive: 6.62%
COc1ccc2c(c1O)-c1c(O)c(OC)cc3c1[C@H](C2)[N+](C)(C)CC3.O=[N+]([O-])c1cc([N+](=O)[O-])c([O-])c([N+](=O)[O-])c1[O-]	inactive: -2.86%
O=C(NCC1(N2CCCCC2)CCCCC1)c1cncc(Br)c1	inactive: 2.15%
CN1CCC(Nc2cccc(F)c2)CC1	inactive: -6.15%
O=C(OC1CN2CCC1CC2)c1ccc([N+](=O)[O-])cc1 (stereo not given)	inactive: -4%
CCCOc1ccc(C(=O)NCC2(N(C)C)CCCCC2)cc1OC	inactive: 1.39%
CN(C)c1cccc(C(=O)NCC2(N3CCCCC3)CCCCC2)c1	inactive: -1.37%
O=[N+]([O-])c1cc([N+](=O)[O-])c(OC2CCCCC2O)c([N+](=O)[O-])c1 (stereo not given)	inactive: -0.538%
COc1ccc(CN(CCCl)CCCl)cc1Cl	inactive: -2.13%
CC(C)c1ccc(NC2CCN(C(=O)OC(C)(C)C)CC2)cc1	inactive: 1.21%
O=C(NCC1(N2CCOCC2)CCCCC1)c1cc(F)c(F)cc1Cl	inactive: -8.87%
COc1cc(OC)c(C(=O)NCC2(N(C)C)CCCCC2)cc1OC	inactive: 1.08%
O=C(NCC1(N2CCOCC2)CCCCC1)c1cc2ccccc2o1	inactive: 9.9%
Cc1cc(C)cc(N(C(=O)c2ccccc2)C2CCN(C(=O)OC(C)(C)C)CC2)c1	inactive: 2.43%
